The entries are a selection whose mix differs from that of the whole data set. Some results for these compounds are left out of this collection, so the calls shown say nothing about other tests. Activity calls are given as the source filed them.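 How the source made its calls: active means Every replicate reaches about 75%, or at least half do and their mean reaches it too (limit read from the data); inconclusive means At least half of replicates reach the limit but their mean does not; inactive means Under half of replicates reach the limit.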

The nature of this assay: INS-1E beta cell survival under cytokines – luminescence, primary screen (AID 435005).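 Further: 0% = cytokine-treated negative control wells and 100% = positive control rescue; higher means more ATP so stronger rescue from cytokine killing.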 The settings on record: INS-1E cytokine-induced death, ATP luminescence, 48 h; stronger effect = higher value; percent of positive-control rescue, neutral wells zero; concentration not given here.
On to `COc1ccc(Br)c(C(=O)NCC2(N3CCCCC3)CCCCC2)c1`, for which the protection from apoptosis was inactive: 1.99%.

With `CC(C)Oc1ccc(C(=O)NCC2(N(C)C)CCCCC2)cc1`, the protection from apoptosis is inactive: -4.98%. Turning to `CN(C)c1cccc(C(=O)NCC2(N(C)C)CCCCC2)c1`, the protection from apoptosis was inactive: -2.85%.

As for `O=C(OC1CN2CCC1CC2)C(CO)(c1ccccc1)c1ccccc1` (configuration not stated), the protection from apoptosis is inactive: -26.6%.

With `COc1ccc(Cl)cc1C(=O)NCC1(N(C)C)CCCCC1`, the protection from apoptosis was inactive: -9.59%. As for `COc1cccc(C(=O)NCC2(N3CCCCC3)CCCCC2)c1`, the protection from apoptosis was inactive: -2.11%.

With `O=C(NCC1(N2CCCCC2)CCCCC1)c1cccc(Cl)c1`, the protection from apoptosis is inactive: -2.86%.

As to `CN(C)C1(CNC(=O)c2ccc(Br)cc2)CCCCC1`, the protection from apoptosis was inactive: 0.912%. The value for `O=C(NCC1(N2CCCCC2)CCCCC1)c1cc(F)c(F)cc1Cl` was inactive: 3.07%; that for `C=CCN1CCN(CCOC(=O)C(O)(c2ccccc2)c2ccccc2)CC1` was inactive: -12%. Then `COc1ccc(C(=O)NCC2(N(C)C)CCCCC2)cc1`, with inactive: -4.05%. For `O=C(NCC1(N2CCCCC2)CCCCC1)c1cccc(Br)c1`, the protection from apoptosis was inactive: -0.0997%.

On to `Cc1cc(C(=O)NCC2(N3CCCCC3)CCCCC2)ccc1[N+](=O)[O-]`, for which the protection from apoptosis is inactive: -3.56%.

Take `CN(C)c1ccc(C(=O)NCC2(N(C)C)CCCCC2)cc1`: the protection from apoptosis was inactive: -5.66%. In the case of `CN(C)C1CCCC1OC(=O)C(O)(c1ccccc1)c1ccccc1` (configuration not stated), the protection from apoptosis was inactive: -4.31%. `Cc1ccccc1C(=O)NCC1(N2CCCCC2)CCCCC1`: the protection from apoptosis is inactive: 3.1%. Take `COc1cc(SC)ccc1C(=O)NCC1(N(C)C)CCCCC1`: the protection from apoptosis is inactive: -2.13%. Regarding `CCN(CC)CC(C)C(C)OC(=O)C(O)(c1ccccc1)c1ccccc1` (configuration not stated), the protection from apoptosis is inactive: -0.981%. Regarding `CC(C)N1C(=O)CC2(CCN(CCOC(=O)C(O)(c3ccccc3)c3ccccc3)CC2)C1=O`, the protection from apoptosis is inactive: -2.21%. On to `Cc1ccc(C(=O)NCC2(N3CCCCC3)CCCCC2)cc1`, for which the protection from apoptosis is inactive: -7.28%. Then `O=C(NCC1(N2CCCCC2)CCCCC1)c1cc([N+](=O)[O-])ccc1Cl`, with inactive: -1.34%; and `CN1[C@@H]2CC[C@H]1CC(OC(=O)C(O)(c1ccccc1)c1ccccc1)C2` (some centres not stated), with inactive: -7.9%.

Values taken from PubChem BioAssay AID435005 (Broad Institute, 2010).
